In this series the test system is p-glycoprotein (abcb1a and abcb1b). The note with it: male, abcb1ab(-/-) on FVB/N background and FVB/N wildtype, mouse, in vivo, 11 days. The method, then:
Venlafaxine and o-desmethylvenlafaxine (d-venlafaxine) was obtained from Wyeth-Pharma GmbH (Münster, Germany). […] Protriptyline was purchased from RBI (Massachusetts, USA). All other chemicals were obtained in the purest grade available from Merck (Darmstadt, Germany).
Male abcb1ab(−/−) mice and FVB/N wildtype mice were housed individually and maintained on a 12:12 h light/dark cycle (lights on at 07:00), with food and water ad libitum. Abcb1ab double knockout mice, originally created by A. Schinkel by sequential gene targeting in 129/Ola E14 embryonic stem cells^28 and backcrossed seven times (N7) to FVB/N from the C57BL/6×129 chimera, and FVB/N wildtype mice were received from Taconic (Germantown, USA; FVB/Tac-[KO]Pgy2 N7). A homozygous colony is maintained at the Max-Planck Institute of Psychiatry on the N7 FVB/N background through intercrossing of homozygous mice.
Experimental and extraction procedures were performed as described before^12,26. […] After 11 days, the mice were anesthetized and sacrificed. […]
HPLC measurements were performed as described before^12,26. A Beckman gradient pump, autoinjector, UV detector and a Merck fluorescence detector, were used for the high-performance liquid chromatography analysis. […] The substances were determined by UV absorption and fluorescence at the described wavelength (Table 3). […]

This note sets out measurements from patent publication US8030033B2, “Polymorphisms in ABCB1 associated with a lack of clinical response to medicaments” (priority 2004, dated 2011).

Turning to `CN(C)CCCC1(c2ccc(F)cc2)OCc2cc(C#N)ccc21` (stereo not shown) [citalopram], the “fold higher concentration in the brain of abcb1ab (-/-) mutant compared to wildtype animals (cerebrum/plasma ratio)” value amounted to 3 fold.
